Measurements: patent publication US9873702B2, “Heterocyclic compounds as biogenic amine transport modulators” (Southern Research Institute, priority 2014, dated 2018)

By UniProt entry, the sequences of proteins in these tests, tags left out.
UniProt P23977, whole entry: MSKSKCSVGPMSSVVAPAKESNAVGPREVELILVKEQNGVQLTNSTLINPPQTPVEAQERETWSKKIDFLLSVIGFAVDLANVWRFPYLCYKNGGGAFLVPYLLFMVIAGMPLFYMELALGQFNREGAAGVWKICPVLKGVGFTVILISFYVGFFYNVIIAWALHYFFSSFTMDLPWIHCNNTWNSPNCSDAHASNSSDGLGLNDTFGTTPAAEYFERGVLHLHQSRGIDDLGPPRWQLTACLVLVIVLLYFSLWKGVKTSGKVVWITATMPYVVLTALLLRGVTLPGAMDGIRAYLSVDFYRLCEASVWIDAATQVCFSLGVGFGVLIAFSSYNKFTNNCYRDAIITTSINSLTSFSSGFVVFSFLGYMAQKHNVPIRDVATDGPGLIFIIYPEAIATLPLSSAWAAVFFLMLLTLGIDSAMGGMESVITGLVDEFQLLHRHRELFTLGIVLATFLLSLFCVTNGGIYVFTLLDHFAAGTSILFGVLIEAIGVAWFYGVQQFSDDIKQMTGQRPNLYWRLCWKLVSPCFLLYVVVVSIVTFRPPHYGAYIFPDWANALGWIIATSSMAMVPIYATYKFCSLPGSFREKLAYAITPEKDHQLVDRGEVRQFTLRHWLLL

How the values were obtained:
[1] = target: T1, dopamine transporter (DAT) (Rattus norvegicus, UniProt P23977); test: Dopamine transporter-mediated [^3H]MPP^+ release, shift of D-amphetamine-induced release, rat caudate synaptosomes; format: biochemical; parameters: Freshly removed caudate was homogenized in 10% ice-cold sucrose; from tissue; host or cells: rat caudate synaptosomes
[2] = target: T1, dopamine transporter (DAT); test: d-Amphetamine-induced DAT-mediated [^3H]DA release; format: biochemical; parameters: Freshly removed caudate was homogenized in 10% ice-cold sucrose; from tissue; host or cells: rat caudate synaptosomes; conditions: Apparent Kc = [Blocker]/((EC50-2/EC50-1) − 1), negative when shifted EC50 is less than control

c1ccc(CCCN2CCN(CCOC(c3ccccc3)c3ccccc3)CC2)cc1 [GBR12935, reference compound]
Apparent Kc ([1]; [3H]MPP+ release, Apparent Kc = [Blocker]/((EC50-2/EC50-1) − 1), negative when shifted EC50 is less than control): 0.22 nM | effect on the d-amphetamine Emax value, in words ([1]; d-amphetamine-induced DAT-mediated [^3H]MPP^+ release, blocking concentration ˜25 times IC50 for DAT uptake inhibition): without changing the Emax value | Apparent Kc [2]: 0.74 nM

C[C@H](N)Cc1ccccc1 [D-Amphetamine, D-amphetamine, reference compound]
D-Amphetamine Emax (% ± SD) ([1]; D-amphetamine-induced DAT-mediated [^3H]MPP^+ release, no test compound): 104 ± 4%
